Activity calls are given as the source filed them. The calls are words filed in the database; no cut-off is given here.
target: Peroxisome proliferator-activated receptor gamma (Homo sapiens, UniProt P37231); experiment: Activation of human PPARgamma ligand binding domain expressed in COS7 cells by dual luciferase reporter gene assay relative to 1 uM pioglitazone; assay type: cell-based; settings: COS-7

Protein sequences, listed by entry. Tags and fused reporters are not part of them. Lines headed by an entry give the natural chain unless they say otherwise; changes in a name come on top.
UniProt P37231: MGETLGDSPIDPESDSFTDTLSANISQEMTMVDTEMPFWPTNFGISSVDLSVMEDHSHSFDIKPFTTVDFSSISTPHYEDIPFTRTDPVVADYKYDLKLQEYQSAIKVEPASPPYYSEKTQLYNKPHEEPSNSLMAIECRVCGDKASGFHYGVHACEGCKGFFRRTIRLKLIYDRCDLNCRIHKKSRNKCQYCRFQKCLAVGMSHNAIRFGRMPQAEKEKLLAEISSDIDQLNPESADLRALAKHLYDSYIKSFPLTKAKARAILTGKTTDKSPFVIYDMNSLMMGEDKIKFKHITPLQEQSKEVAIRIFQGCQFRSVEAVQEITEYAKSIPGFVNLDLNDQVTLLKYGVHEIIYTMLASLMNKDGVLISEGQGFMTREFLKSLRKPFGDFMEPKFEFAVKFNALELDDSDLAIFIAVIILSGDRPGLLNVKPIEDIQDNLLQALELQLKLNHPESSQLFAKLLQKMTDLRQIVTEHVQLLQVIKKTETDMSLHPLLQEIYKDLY

`CCCC/C(=C\c1cc(OCc2ccc(Oc3ccccn3)cc2)ccc1OCc1ccc(C(F)(F)F)cc1)C(=O)O` was tested. Which max activation did it give?
The max activation was “inactive”.

`CCCC/C(=C\c1cc(OCc2ccc(CCCC)cc2)ccc1OCc1ccc(C(F)(F)F)cc1)C(=O)O` was tested. Which max activation did it give?
The max activation was “inactive”.

Which max activation does the source give for `CCCC/C(=C\c1cc(OCc2ccc(OCc3ccccc3)cc2)ccc1OCc1ccc(C(F)(F)F)cc1)C(=O)O` here?
Its max activation is “inactive”.

Which max activation does the source give for `CCCC/C(=C\c1cc(OCc2ccc(-c3ccccc3)cc2)ccc1OCc1ccc(C(F)(F)F)cc1)C(=O)O` here?
Its max activation is “inactive”.

With `CCCC/C(=C\c1cc(OCc2ccc(-c3csc(C)n3)cc2)ccc1OCc1ccc(C(F)(F)F)cc1)C(=O)O` as the compound, how does the max activation read?
Its max activation is “inactive”.

Source: ChEMBL document CHEMBL3397016, “SAR-studies of γ-secretase modulators with PPARγ-agonistic and 5-lipoxygenase-inhibitory activity for Alzheimer's disease” (Bioorg Med Chem Lett, 2015)
